Several values for one entry are separate records, joined by “and”; a condition that tells them apart may be missing. Identical values can stand only once. This is a selection; strong and weak results do not stand in their true shares. Some results for these compounds are left out of this collection, so the calls shown say nothing about other tests. Activity calls are given as the source filed them. No stated cut-off is given here; in the data, active means growth inhibition above about 70%; inactive means the rest.
Tests used:
[1] = NCI Yeast Anticancer Drug Screen. Data for the rad50 strain (AID 155);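 further: 0% = growth of vehicle-only cultures of the same strain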; conditions: S. cerevisiae rad50 strain growth inhibition; at 50.0 µM; hits give high values
[2] = NCI Yeast Anticancer Drug Screen. Data for the mec2-1 strain (AID 157); conditions: S. cerevisiae mec2-1 strain, at 50.0 µM, hits give high values
[3] = NCI Yeast Anticancer Drug Screen. Data for the sgs1 mgt1 strain (AID 161);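 further: 0% = growth of cultures given vehicle only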; conditions: S. cerevisiae sgs1 mgt1 strain, at 50.0 µM, hits give high values
[4] = NCI Yeast Anticancer Drug Screen. Data for the cln2 rad14 strain (AID 165);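 further: 0% = growth equal to vehicle treated cultures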; conditions: S. cerevisiae cln2 rad14 strain, at 50.0 µM, hits give high values
[5] = NCI Yeast Anticancer Drug Screen. Data for the bub3 strain (AID 167); conditions: S. cerevisiae bub3 mutant strain, at 50.0 µM, hits give high values
[6] = NCI Yeast Anticancer Drug Screen. Data for the mlh1 rad18 strain (AID 175); conditions: S. cerevisiae mlh1 rad18 strain growth inhibition; at 50.0 µM; hits give high values

Measured: growth inhibition

C=C(C)C#CC(O)(C(=O)OC1CN2CCC1CC2)c1ccccc1 (stereo unspecified)
inactive: [1] 30.7% | [2] 9.4% | [3] 4.75% | [4] 0.25% | [5] 8.4% | [6] 28.8%

CN(C)C(=O)Oc1ccc(-c2ccccc2)cc1C[N+]1(C)CCCCC1
inactive: [1] -2.85% | [2] 3.6% | [3] 4.55% | [4] 7.55% | [5] -4.55% | [6] 5.9%

O=C(OC1CN2CCC1CC2)C(O)(/C=C/c1ccccc1)c1ccccc1 (stereo unspecified)
inactive: [1] 24.1% | [2] 16.2% | [3] 24.2% | [4] 2.45% | [5] 11.1% | [6] 39.8%

CC#CC(O)(C(=O)OC1CN2CCC1CC2)C1CC1 (stereo unspecified)
inactive: [1] 14.2% | [2] 21.8% | [3] -1.85% | [4] -12.2% | [5] -7.65% | [6] -4.4%

C#CC(O)(C(=O)OC1CN2CCC1CC2)c1ccccc1 (stereo unspecified)
inactive: [1] -8.45% | [2] 4.65% | [3] 2.35% | [4] -0.7% | [5] 0.05% | [6] 9.95%

O=C(OC1CCN(CC2CC2)CC1)C(O)(c1ccccc1)c1ccccc1
inactive: [1] 55% | [2] 36.6% | [3] 51.9% | [4] 36.4% | [5] 35.6% | [6] 53.4%

CC#CC(O)(C(=O)OC1C2CCN(CC2)C1C)C1=CCCC1 (stereo unspecified)
inactive: [1] -58.5% | [2] -9.35% | [3] -18.9% | [4] -19.4% | [5] -2.15% | [6] -53.3%

CN1CCCC(COC(=O)C(O)(c2ccccc2)c2ccccc2)C1 (stereo unspecified)
inactive: [1] -7.9% | [2] 0.95% | [3] -10.1% | [4] -15.7% | [5] -1.9% | [6] -39.1%

CC(C)/C=C\C(O)(C(=O)OC1CN2CCC1CC2)c1ccccc1 (stereo unspecified)
inactive: [1] -2.75% | [2] 2.45% | [3] 37.3% | [4] 26.6% | [5] 37.2% | [6] 31%

CC(C)C#CC(O)(C(=O)OC1C2CCN(CC2)C1C)C1CCCCC1 (stereo unspecified)
inactive: [1] 27.1% | [2] 18.6% | [3] 22.4% | [4] 14.6% | [5] 20.6% | [6] 25.6%

CCN(CCCl)CCCCl
inactive: [1] -8.55% | [2] -21.4% | [3] -8.65% | [4] -27.9% | [5] 5.45% | [6] 17.1%

CN1CCC(OC(=O)C(O)(c2ccccc2)c2ccccc2)CC1
inactive: [1] 10.4% and 21.6% | [2] 9.05% and -13.1% | [3] 0.3% and -2% | [4] -1.85% and 14.6% | [5] -2.85% and 0.65% | [6] -2.5% and -4.4%

CCCC#CC(O)(C(=O)OC1CN2CCC1CC2)C1CCCCC1 (stereo unspecified)
inactive: [1] 47.7% | [2] 22.1% | [3] 36.5% | [4] 9.05% | [5] 24.9% | [6] 26.1%

CC#CC(O)(C#CC)C(=O)OC1CN2CCC1CC2 (stereo unspecified)
inactive: [1] 7.65% | [2] 7.95% | [3] 13.4% | [4] 13.2% | [5] 1.85% | [6] 12.6%

C=CCN1CCN(C(Cc2ccccc2)c2ccccc2)CC1 (stereo unspecified)
inactive: [1] 27.8% | [2] 3% | [3] 21.9% | [4] 26.4% | [5] 18.1% | [6] 42.7%

N#CC(C#N)=Cc1ccccc1Cl
inactive: [1] 15.8% and 8.45% | [2] 18.1% and -7.65% | [3] -3.85% and -14.7% | [4] 23.4% and -12.6% | [5] 10.1% and -0.05% | [6] 17.9% and 26.1%

CCC#CC(O)(C(=O)OC1CC2CCC(C1)N2C)c1ccccc1 (stereo unspecified)
inactive: [1] 22.9% | [2] 8.65% | [3] 14.4% | [4] 0.55% | [5] 12.2% | [6] 20%

CC(C)/C=C\C(O)(C(=O)OC1CN2CCC1CC2)C1CCCC1 (stereo unspecified)
inactive: [1] 47.5% | [2] 30.6% | [3] 46.8% | [4] 35.4% | [5] 41.6% | [6] 32.4%

C/C=C\C(O)(C(=O)OC1CN2CCC1CC2)C1CCCC1 (stereo unspecified)
inactive: [1] 60% | [2] 32.5% | [3] 59.7% | [4] 35.5% | [5] 40.9% | [6] 52.4%

CN1CCC=C(COC(=O)C(O)(c2ccccc2)C2CCCC2)C1 (stereo unspecified)
inactive: [1] -7.05% | [2] -15.9% | [3] -17.4% | [4] 4.3% | [5] 16.9% | [6] 1%

O=C(OCCN(C1CCCC1)C1CCCC1)C(O)(c1ccccc1)c1ccccc1
inactive: [1] -15.3% | [2] 8.35% | [3] -10.5% | [4] 10.1% | [5] 1.8% | [6] -14.1%

— PubChem BioAssay (NCI)
